Test results as given in the NIST ThermoML archive (doi:10.1016/j.jct.2015.02.007).

Conditions: 100 kPa, Liquid; for mass density: Vibrating tube method; for speed of sound: Pulse-echo method

OCCOCCOCCOCCO [tetraethylene glycol]
Conditions | mass density [kg/m3] | speed of sound [m/s]
278.15 K | 1135.81 | –
283.15 K | 1131.85 | –
288.15 K | 1127.88 | 1633.1
293.15 K | 1123.9 | 1615.3
298.15 K | 1119.92 | 1599.1
303.15 K | 1115.94 | 1582.9
308.15 K | 1111.96 | 1568.7
313.15 K | 1107.98 | 1553.5
318.15 K | 1104.01 | 1538.5
323.15 K | 1100.02 | –
328.15 K | 1096.04 | –
333.15 K | 1092.05 | –
